Data published in patent US8900444B2, “Switchable hydrophilicity solvents and methods of use thereof” (Queen's University at Kingston, priority 2009, dated 2014).
Only a part of the results on these compounds is given; other tests are left out.

Experiment: Miscibility of amines with water in the absence of CO2 (Example 5A)
Settings: 1 mL amine + 1 mL H2O, room temperature, visual

OCCN(CCO)CCO
miscibility with water under air (absence of CO2): single-phase
